According to US20240034757A1 (OXFORD UNIVERSITY INNOVATION, published 2024):

Tests used:
Test in all cases: cell-based or functional assay
[1] = molecular target: T1, CCL5_HUMAN (human, UniProt P13501 24-91)
T1 sequence: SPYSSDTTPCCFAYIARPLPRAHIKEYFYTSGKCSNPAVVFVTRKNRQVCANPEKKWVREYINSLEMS

[2] = molecular target: T2, CXCL1_HUMAN (human, UniProt P09341 35-107)
T2 sequence: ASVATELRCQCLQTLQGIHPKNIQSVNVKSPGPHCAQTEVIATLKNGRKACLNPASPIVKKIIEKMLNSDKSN

[3] = molecular target: T3, CCL3_HUMAN (human, UniProt P10147 24-92)
T3 sequence: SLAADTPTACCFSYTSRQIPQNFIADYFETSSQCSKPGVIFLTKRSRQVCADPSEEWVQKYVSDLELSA

B1: P1243:G4S:P1156 (designed binder)
chain: RNHTEDNSTEYYDYEEARCACPARHLNNTNGTVLKLLGCHYFCNGTLCTAPDGYPCYNLTAQQVRTLTTYPNTSCAVGVCMKGTCVKNGTMEQCFKTPGGGGSADDDNELFTVQYCGMNCTKDEGGTWTGCTGKKEGCKCYHESGKNYGLCLSTEYTDFSQYGNPSDSEIEAAKPKRSDTLSH
IC50, CCL5 induced THP-1 cell migration [1]: 6.8 nM | IC50, CXCL1 induced granulocyte cell migration [2]: 25.3 nM | IC50, CCL3 induced THP-1 cell migration [3]: 7 nM
